Key:
[1] = Peptide tag stability in human plasma by LC-MS/MS; conditions: 10 μM peptide, 37° C., up to 17 hours
[2] = Peptide tag stability in mouse plasma by LC-MS/MS; conditions: 10 μM peptide, 37° C., up to 17 hours

Compound	t1/2 [h] in human plasma [1]	t1/2 [h] in mouse plasma [2]
CC[C@H](C)[C@H](N)C(=O)N[C@@H](CC(=O)O)C(=O)N[C@H](C(=O)N[C@@H](CCCCN)C(=O)N[C@@H](CC(N)=O)C(=O)N[C@@H](CC(=O)O)C(=O)N[C@@H](CC(C)C)C(=O)N[C@@H](Cc1ccc(O)cc1)C(=O)N[C@@H](CCC(=O)O)C(=O)N[C@@H](CCCCN)C(=O)N[C@H](C(=O)N[C@@H](CC(C)C)C(=O)N[C@@H](CC(N)=O)C(=O)N[C@@H](CC(=O)O)C(=O)N[C@@H](Cc1ccc(O)cc1)C(=O)N[C@@H](CCCCN)C(=O)N[C@@H](C)C(=O)N[C@H](C(=O)N[C@@H](C)C(=O)N[C@@H](CC(N)=O)C(=O)N[C@@H](CCCCN)C(=O)N[C@@H](CC(C)C)C(=O)N[C@@H](CO)C(=O)N[C@@H](CCC(N)=O)C(=O)N[C@H](C(=O)O)C(C)C)[C@@H](C)CC)[C@@H](C)O)[C@@H](C)CC	14 h	5.6 h
CC[C@H](C)[C@H](NC(=O)CN)C(=O)N[C@@H](CC(C)C)C(=O)N[C@@H](Cc1ccccc1)C(=O)N[C@@H](CC(C)C)C(=O)N[C@@H](CCC(N)=O)C(=O)N[C@@H](Cc1c[nH]c2ccccc12)C(=O)N[C@H](C(=O)N[C@@H](CCCNC(=N)N)C(=O)N[C@@H](CC(=O)O)C(=O)N[C@H](C(=O)N[C@H](C(=O)N[C@@H](CC(=O)O)C(=O)N[C@@H](CC(=O)O)C(=O)N[C@@H](Cc1ccccc1)C(=O)N[C@H](C(=O)N[C@@H](CC(N)=O)C(=O)N[C@@H](CCC(=O)O)C(=O)N[C@@H](CO)C(=O)N[C@@H](CO)C(=O)N[C@@H](CCC(N)=O)C(=O)N[C@@H](CCCCN)C(=O)O)[C@@H](C)O)[C@@H](C)CC)[C@@H](C)CC)C(C)C	45 h	5.7 h
